Experimental data: PubChem BioAssay AID2520 (Sanford-Burnham Center for Chemical Genomics, 2010)
This is a selection; strong and weak results do not stand in their true shares. The source made the active and inactive calls.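 The calls were made as follows: active = activation more than six SD over the plate average, tested at 20 µM; inactive = the rest.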

By UniProt entry, the sequences of proteins in these tests, tags left out. Where a name states a change or a piece, a line headed by the entry shows the natural chain unless it says otherwise.
UniProt P35414: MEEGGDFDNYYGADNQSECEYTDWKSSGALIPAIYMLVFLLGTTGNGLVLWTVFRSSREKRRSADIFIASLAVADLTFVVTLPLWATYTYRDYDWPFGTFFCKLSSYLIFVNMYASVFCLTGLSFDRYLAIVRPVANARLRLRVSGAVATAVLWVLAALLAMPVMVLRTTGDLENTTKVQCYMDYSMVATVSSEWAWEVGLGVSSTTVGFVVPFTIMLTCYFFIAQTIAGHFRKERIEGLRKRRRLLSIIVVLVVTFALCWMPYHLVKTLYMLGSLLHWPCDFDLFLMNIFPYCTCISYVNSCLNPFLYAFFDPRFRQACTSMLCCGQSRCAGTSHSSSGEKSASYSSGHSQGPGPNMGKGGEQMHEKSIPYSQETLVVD

Target: Apelin receptor (Homo sapiens) (UniProt P35414)
Test: agonists of human apelin receptor APJ, primary screen, CHO-K1 cells, PathHunter beta-arrestin, luminescence (AID 2520)
Details: at 20 µM, stronger effect = higher value, 0% DMSO wells, 100% apelin
In short: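 Assay system: engineered CHO-K1 APJ arrestin reporter cells; Amount: 1000 CHO-K1 reporter cells seeded per well; Dosing: one dose, 20 µM compound, 1% DMSO; Times: compound stimulation 90 min at 25 °C, detection 60 min; Measured by: luminescent beta-gal fragment complementation, chemiluminescent substrate; Read-out: APJ–arrestin association signal; Controls: DMSO vs Apelin-13 10 nM.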

Compound	activation
CN(C(=O)Cc1ccc(Cl)c(Cl)c1)[C@H]1CCCC[C@H]1N1CCCC1	inactive: -0.837%
Cc1ccc(N/C(=N/P(=O)(N2CCOCC2)N2CCOCC2)N2CCOCC2)cc1	inactive: -2.45%
NC(=O)c1cc([N+](=O)[O-])cc([N+](=O)[O-])c1N	inactive: 1.54%
Clc1ccc(Cl)c(NC2=NCC(CBr)S2)c1 (stereo not drawn)	inactive: -2.07%
CN1CCCC(OC(=O)C(c2ccccc2)c2ccccc2)C1 (stereo not drawn)	inactive: -3.83%
COc1ccccc1OP(=O)(Nc1ccc(C)cn1)Oc1ccccc1OC	inactive: 2.02%
Cc1ccc(OP(=O)(Nc2nccs2)Oc2ccc(C)cc2)cc1	inactive: -3.75%
Oc1ccccc1CNc1ccccn1	inactive: 1.06%
Cc1c2non([O-])c-2c(C)[n+](=O)[n+]1[O-]	inactive: 0.0599%
O=C(NC(Sc1ccncn1)C(Cl)(Cl)Cl)c1ccccc1 (stereo not drawn)	inactive: -2.59%
CC(C)CC(=O)NC(Sc1ccc(Cl)cc1)C(Cl)(Cl)Cl (stereo not drawn)	inactive: -0.853%
Nc1cc(N)c2nonc2c1[N+](=O)[O-]	inactive: 2.25%
O=P(Nc1nc2ccc(Cl)cc2s1)(c1ccccc1)c1ccccc1	inactive: -4.57%
O=C(O)c1ccccc1[As](=O)(O)O	inactive: -3.74%
CC(=O)Nc1ccc([As](=O)(O)O)cc1	inactive: 0.24%
CCOP(=O)(Nc1ccccc1)OCC	inactive: 2.52%
Cc1cc(SC(NC(=O)c2ccc(F)cc2)C(Cl)(Cl)Cl)ncn1 (stereo not drawn)	inactive: -4.3%
Cc1ccc(NP(=O)(Oc2ccccc2F)Oc2ccccc2F)nc1	inactive: -2.5%
CN(C(=O)Cc1ccc(Cl)c(Cl)c1)[C@H]1CCCC[C@@H]1N1CCCC1	inactive: -4.45%
O=[N+]([O-])c1cc([N+](=O)[O-])c(CCN2CCOCC2)c([N+](=O)[O-])c1	inactive: 2.06%
CCN(N=Nc1nonc1N)c1nonc1N	inactive: -4.06%
O=C(Nc1cc([As](=O)(O)O)ccc1O)c1ccccc1	inactive: -0.276%
O=[N+]([O-])c1ncn(CCn2ncnc2[N+](=O)[O-])n1	inactive: 0.905%
CC(C)(C)C(=O)NC(Sc1ccncn1)C(Cl)(Cl)Cl (stereo not drawn)	inactive: -6.97%
O=[N+]([O-])c1cccc(NC2=NCC(CBr)S2)c1 (stereo not drawn)	inactive: 0.57%

Compound	activation
COc1ccc(C2=NCC(CBr)S2)cc1 (stereo not drawn)	inactive: 1.66%
Cc1ccc(NP(=O)(Oc2ccccc2)Oc2ccccc2)nc1	inactive: -0.663%
CCc1nc2c(n1)c1c(non1O)c1c2no[n+]1[O-]	inactive: 6.22%
O=[N+]([O-])c1cc([N+](=O)[O-])c(CCNc2ccccc2)c([N+](=O)[O-])c1	inactive: -0.107%
O=[N+]([O-])c1cccc2n[nH]nc12	inactive: 1.89%
CC(=O)N1C2C3N(C(C)=O)C1C1N(C(C)=O)C(C(N1C(C)=O)N3C(C)=O)N2C(C)=O	inactive: -2.72%
CCN(/C(=N/P(=O)(N1CCOCC1)N1CCOCC1)N1CCOCC1)c1ccc(OC)cc1	inactive: -2%
Nc1ccc([As](=O)(O)c2ccc(N)cc2)cc1	inactive: -2.75%
C[N+]1=C2C=CC=CC=C2SC12C([N+](=O)[O-])=CC([N+](=O)[O-])=C[C-]2[N+](=O)[O-] (stereo not drawn)	inactive: -7.22%
CC1CCN(C(=O)Oc2c(Cl)cc(Cl)c3cccnc23)CC1	inactive: -5.88%
CC(C)=N/N=C(\N)N[N+](=O)[O-]	inactive: -1.8%
CN(C)C(=O)OCCc1n(C)cc[n+]1C	inactive: -0.799%
CC(C)C(=O)NC(Sc1ccccc1)C(Cl)(Cl)Cl (stereo not drawn)	inactive: -1.65%
O=P(Nc1nccs1)(c1ccccc1)c1ccccc1	inactive: -4.03%
c1nnnn1CCn1cnnn1	inactive: -3.34%
O=P(Nc1ccccn1)(c1ccc(Br)cc1)c1ccc(Br)cc1	inactive: -4.41%
CN(C)C1(CNC(=O)c2ccc(Cl)c(S(N)(=O)=O)c2)CCCCC1	inactive: 0.363%
O=P(Nc1nc2ccccc2s1)(c1ccccc1)c1ccccc1	inactive: -3.72%
C[C@H]1OP(=O)(Oc2ccccc2)[C@H](O)[C@H](O)[C@H]1N=[N+]=[N-] (stereo partly drawn)	inactive: 6.21%
O=[As](O)(c1ccccc1)c1ccc(O)cc1	inactive: -5.1%
O=[N+]([O-])c1ncn(CCn2cnc([N+](=O)[O-])n2)n1	inactive: -0.316%
O=C(OC1CN2CCC1CC2)c1cccc(Cl)c1 (stereo not drawn)	inactive: -5.21%
Nc1ccc([As](=O)(O)c2ccc([N+](=O)[O-])cc2)cc1	inactive: 0.547%
C(Cc1nn[nH]n1)Cc1nn[nH]n1	inactive: 2.13%
c1ccc(-c2nn[nH]n2)c(-c2nn[nH]n2)c1	inactive: -1.56%

Compound	activation
CCOC(=O)NC(Sc1ccccc1)C(Cl)(Cl)Cl (stereo not drawn)	inactive: -3.19%
Cc1ccc(NP(=O)(Oc2cccc(C)c2)Oc2cccc(C)c2)nc1	inactive: -5.83%
CCNC(=S)/N=C(\N)N[N+](=O)[O-]	inactive: -2.86%
O=C(NC1CCS(=O)(=O)C1)NP(=S)(Oc1ccccc1)Oc1ccccc1 (stereo not drawn)	inactive: 0.711%
O=C(OC1CN2CCC1CC2)c1ccccc1 (stereo not drawn)	inactive: -4.09%
CCC(=O)N1C2C3N(C(=O)CC)C1C1N(C(=O)CC)C(C(N1C(=O)CC)N3C(=O)CC)N2C(=O)CC	inactive: 0.556%
COC(=O)c1cc2c(s1)N=C(c1ccccc1)N(C)P2(=O)N1CCOCC1 (stereo not drawn)	inactive: -3.85%
Cc1ccc(OP(=O)(Nc2ccccn2)Oc2ccc(C)cc2)cc1	inactive: -1.66%
CC(=O)NC(SC(=S)N(CC(C)C)CC(C)C)C(Cl)(Cl)Cl (stereo not drawn)	inactive: 1.88%
Cc1ccccc1OP(=O)(Nc1ccccn1)Oc1ccccc1C	inactive: -1.04%
CC(NC(=O)COC(=O)C(O)(c1ccccc1)c1ccccc1)c1ccccc1 (stereo not drawn)	inactive: 0.0513%
CN(C)C(=O)Oc1noc2ccccc12	inactive: 3.2%
O=P1(Nc2nc3ccc(Cl)cc3s2)COc2ccccc2O1 (stereo not drawn)	inactive: 2.52%
CCOc1ccc(C2=NCC(CBr)S2)cc1 (stereo not drawn)	inactive: -2.7%
CC(C)(C)C(=O)NC(Sc1ccccc1)C(Cl)(Cl)Cl (stereo not drawn)	inactive: -0.748%
Cc1ccccc1CN(C)C(=O)COC(=O)C(O)(c1ccccc1)c1ccccc1	inactive: -2.3%
C[C@@H]1C=CCP(=O)(Oc2ccccc2)O1 (stereo partly drawn)	inactive: -5.08%
C[C@H]1OP(=O)(Oc2ccccc2)C[C@@H]2O[C@@H]21 (stereo partly drawn)	inactive: -2.73%
CC(=O)c1ccc(N2CC2c2ccncc2)cc1 (stereo not drawn)	inactive: -1.8%
CC(=O)Nc1ccc([As](=O)(O)O)c(O)c1	inactive: -0.5%
CC(=O)Nc1ccc(Oc2c([N+](=O)[O-])cc([N+](=O)[O-])cc2[N+](=O)[O-])cc1	inactive: -3.79%
O=C(OC1CN2CCC1CC2)c1ccc(Cl)cc1 (stereo not drawn)	inactive: -0.952%
COc1cc(C(=O)NCC2(N3CCOCC3)CCCCC2)cc(Cl)c1OC(C)C	inactive: -0.465%
O=[As](O)(O)c1cccnc1	inactive: -1.54%
CS(=O)(=O)c1ccc(Cl)c(NC(=O)COC(=O)C(O)(c2ccccc2)c2ccccc2)c1	inactive: 3.39%

Compound	activation
O=[As](O)(c1cccc(O)c1)c1cccc(O)c1	inactive: -6.23%
Cc1cccc(OCC(=O)OC2CN3CCC2CC3)c1 (stereo not drawn)	inactive: 1.16%
Cc1ccc(NCCc2c([N+](=O)[O-])cc([N+](=O)[O-])cc2[N+](=O)[O-])cc1	inactive: 5.06%
CCCOP(=S)(Nc1nc(N)cc(=O)[nH]1)OCCC	inactive: -1.14%
COc1cc(C2NCCC3(OCCO3)C2(C)C)cc(OC)c1OC (stereo not drawn)	inactive: -1.82%
CCOP(=O)(Nc1cccc2ccccc12)OCC	inactive: -2.7%
CCOP1(=S)c2c(C)nn(CCC#N)c2N=C(c2ccccc2F)N1C (stereo not drawn)	inactive: -4.54%
O=P(Nc1nccs1)(c1ccccc1)c1nc2ccccc2s1 (stereo not drawn)	inactive: -3.01%
O=P(Nc1nccs1)(Oc1ccccc1)Oc1ccccc1	inactive: 1.98%
CS(=O)(=O)c1cc([N+](=O)[O-])c2no[n+]([O-])c2c1	inactive: 2.72%
Nc1ccccc1[As](=O)(O)c1ccccc1	inactive: 0.523%
O=C(O)COc1ccc([As](=O)(O)O)cc1[N+](=O)[O-]	inactive: -1.66%
NC(=O)Nc1ccc([As](=O)(O)O)cc1	inactive: 7.53%
N#CCCN(C(=O)COC(=O)C(O)(c1ccccc1)c1ccccc1)c1ccc(F)cc1	inactive: -5.09%
CCOP1(=S)c2c(C)nn(CCC#N)c2N=C(c2ccc(F)cc2)N1C (stereo not drawn)	inactive: -2.26%
CN(C(=O)Cc1ccccc1)[C@@H]1CC[C@]2(CCCO2)C[C@H]1N1CCCC1	inactive: 3.01%
CN(C)C(=O)c1cc([N+](=O)[O-])cc2c1-c1c(cc([N+](=O)[O-])cc1[N+](=O)[O-])C2=O	inactive: -0.287%
O=[N+]([O-])c1ccc2c(c1)nnn2O	inactive: -3.72%
CN(C(=O)Cc1ccc(Cl)c(Cl)c1)[C@H]1CC[C@@]2(CCCO2)C[C@@H]1N1CCCC1	inactive: 2.73%
Cc1nn(-c2ccccc2)c2c1P(=O)(N1CCOCC1)N(C)C(c1ccccc1)=N2 (stereo not drawn)	inactive: -3.91%
CC1CCC(C(C)C)C(OP(=O)(Nc2ccccn2)c2ccccc2)C1 (stereo not drawn)	inactive: -1.3%
Cc1ccc(C(=O)OC2CN3CCC2CC3)cc1 (stereo not drawn)	inactive: -0.919%
CN(C)C1(CNC(=O)c2ccc(S(C)(=O)=O)cc2)CCCCC1	inactive: -6.25%
